The numbers were not newly measured in patent US20110201620A1, “2-(3-AMINOARYL) AMINO-4-ARYL-THIAZOLES AND THEIR USE AS C-KIT INHIBITORS” (AB SCIENCE, priority 2002, published 2011), which cites them from elsewhere.

Chains of the proteins cited; added tags and fusions are not shown. Residues count along the entry.
UniProt P16234, 24-1089: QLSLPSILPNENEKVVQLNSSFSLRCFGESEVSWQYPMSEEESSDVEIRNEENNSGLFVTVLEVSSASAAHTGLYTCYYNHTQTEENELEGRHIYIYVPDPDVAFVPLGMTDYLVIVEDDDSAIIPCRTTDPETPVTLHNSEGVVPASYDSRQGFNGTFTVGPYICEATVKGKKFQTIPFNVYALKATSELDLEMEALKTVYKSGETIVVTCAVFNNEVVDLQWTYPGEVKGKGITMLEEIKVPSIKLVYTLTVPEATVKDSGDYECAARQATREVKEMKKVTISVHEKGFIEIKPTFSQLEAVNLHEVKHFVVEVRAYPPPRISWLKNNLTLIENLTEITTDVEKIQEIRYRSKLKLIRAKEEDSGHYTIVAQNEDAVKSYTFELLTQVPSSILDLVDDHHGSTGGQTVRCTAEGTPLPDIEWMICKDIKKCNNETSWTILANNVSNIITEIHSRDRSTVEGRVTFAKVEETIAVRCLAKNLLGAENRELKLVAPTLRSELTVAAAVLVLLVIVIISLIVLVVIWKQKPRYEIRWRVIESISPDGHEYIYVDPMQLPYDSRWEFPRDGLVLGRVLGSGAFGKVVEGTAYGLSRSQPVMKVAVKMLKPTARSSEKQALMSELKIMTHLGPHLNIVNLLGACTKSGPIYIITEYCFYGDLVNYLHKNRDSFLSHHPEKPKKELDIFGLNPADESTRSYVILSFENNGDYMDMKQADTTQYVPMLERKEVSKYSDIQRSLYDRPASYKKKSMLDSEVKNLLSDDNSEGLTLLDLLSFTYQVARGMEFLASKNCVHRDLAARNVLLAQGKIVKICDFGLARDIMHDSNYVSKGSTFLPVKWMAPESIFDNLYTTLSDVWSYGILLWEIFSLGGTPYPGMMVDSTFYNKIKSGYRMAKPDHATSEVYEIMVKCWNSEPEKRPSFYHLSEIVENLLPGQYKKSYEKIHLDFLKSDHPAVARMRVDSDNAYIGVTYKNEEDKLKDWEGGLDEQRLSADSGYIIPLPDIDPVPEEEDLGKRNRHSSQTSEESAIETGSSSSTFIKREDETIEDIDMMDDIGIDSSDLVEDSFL

The target of this data set is PDGFRA (Homo sapiens, UniProt P16234). The following applies: read-out: Cell proliferation assay (IC50) PDGFRA; cited from earlier work.

On to `Cc1ccc(NC(=O)c2ccc(CN3CCN(C)CC3)cc2)cc1Nc1nc(-c2cccnc2)cs1` [Compound 066, 4-(4-methyl-piperazin-1-ylmethyl)-N-[4-methyl-3-(4-pyridin-3-yl-thiazol-2-ylamino)-phenyl]-benzamide], for which the IC50 was 250 nM.
